Laboratory results published in patent US5514670A, “Submicron emulsions for delivery of peptides” (Pharmos Corporation, priority 1993, dated 1996).

Tested on: Sprague-Dawley female prepubertal rats (ovarian weight gain)
Assay: Ovarian weight gain after HCG administration i.p. or i.c. to prepubertal rats
Format: in vivo, rat
Settings: for ME % / Ovary Weight (NOW) / PA %: single dose; for Ovary Weight (NOW): four days post treatment; for PA %: relative to standard I.P. 1000 U/kg in saline
Procedure: HCG was administered in saline or submicron emulsion (SME), i.p. or i.c. (intracolonic) to anaesthetized Sprague-Dawley female prepubertal rats, 120 g. The rats were sacrificed four days post treatment and the reproductive organs weighed. The ovarian weight gain is a direct and ultimate pharmacological outcome of HCG treatment. Pharmacological effects after colonic administration of HCG in various vehicles was evaluated as PA%; this is defined as follows: [formula] where NOW is Normalized Ovarian Weight, D is the dose, ic indicates intracolonic administration, and iv intravenous administration.

With “human chorionic gonadotropin [HCG in saline]” the ovarian weight gain (1000 U/kg i.c.) was “no ovarian weight gain was observed”, the ME % (I.C., 1000 U/kg) was 22% and the “Ovary Weight (NOW)” value (I.C., 1000 U/kg) was 9.0 mg/100 kg. The PA % (I.C., 1000 U/kg) was 5%, the “absorption after I.C. administration” value (I.C., concluded from ovary response / PA%) was “apparently not absorbed” and the ME % (I.P., 333 U/kg) was 147%. For the same substance, the “Ovary Weight (NOW)” value (I.P., 333 U/kg) was 18.3 mg/100 kg, the PA % (I.P., 333 U/kg) was 120% and the ME % (I.P., 666 U/kg) was 231%. The “Ovary Weight (NOW)” value (I.P., 666 U/kg) was 24.5 mg/100 kg, the PA % (I.P., 666 U/kg) was 95% and the ME % (I.P., 1000 U/kg) was 366%. The “Ovary Weight (NOW)” value (I.P., 1000 U/kg) was 34.5 mg/100 kg and the “effect on weight increase of the sex organs” value (multiple administrations i.c. to the colon of rats) was “not effective at all”.
